Test results taken from US20260382725A1, “LIPID PRODRUGS OF AGOMELATINE” (published 2026).
Like-named read-outs stand apart in the source and are kept apart here. Marks after values point to notes of the source that are not given here.

Legend:
[1] = In vitro Release of Agomelatine from Prodrugs in human plasma supplemented with lipoprotein lipase (LPL); conditions: for Percentage of Agomelatine in Solution: 40 μM prodrug, human plasma with LPL 200-12,000 units/mL, 37 °C, free agomelatine at 180 min timepoint; for levels of free agomelatine in human plasma supplemented with LPL: 180 min timepoint
[2] = test system: recombinant human monoacylglyceride lipase (rhMAGL); experiment: In Vitro Monoglyceride Stability Evaluation with Monoacylglyceride Lipase; conditions: score −10 (100% monoglyceride loss) to 10 (100% monoglyceride remaining), scores above 10 given as 10; BSA 10 mg/mL, LPL 300 units/mL, rhMAGL 0-0.5 μg/mL, 37 °C, 0-180 minutes
[3] = Lymphatic Transport Assay in Conscious Rats; conditions: for % Dose in Lymph: oral gavage, lymph collected up to 24 hr
MT1 receptor = conditions: cited from earlier work
5-HT2C = conditions: cited from earlier work
MT2 receptor = conditions: cited from earlier work
[4] = Pharmacokinetic Studies in Non-human Primates (plasma exposure of agomelatine after oral dosing); conditions: for AUC (plasma exposure of agomelatine): 1 mg/kg agomelatine equivalent for the prodrugs (SEDDS)
[5] = patients receiving agomelatine, cited from earlier work
[6] = test system: cytochrome P450 isoenzymes; conditions: oral; cited from earlier work
[7] = % dose in lymph vs AGM (AGM in oleic acid/Tween 80), prodrug in SEDDS formulation
[8] = formulated in SEDDS formulation (27% Peceol, 48% Cremophor RH40, 25% Sesame Oil)
[9] = formulated in oleic acid/Tween 80 formulation
[10] = % dose in lymph vs AGM, oleic acid/Tween 80 formulation

Percentage of Agomelatine in Solution [1]	Monoacylglyceride Stability [2]	Approximate Fold Change Compared to AGM [3, 7] [fold]	% Dose in Lymph [3, 8]	Structure (SMILES)	further results
A (>25%)	10	300	12** %	CCCCCCCC(=O)OCC(COC(=O)CCCCCCC)OC(=O)CC(C)(C)CCC(=O)OCOC(=O)N(CCc1cccc2ccc(OC)cc12)C(C)=O	–
A (>25%)	–	1075	43** %	CCCCCCCC(=O)OCC(COC(=O)CCCCCCC)OC(=O)CC(C)(C)CCC(C)(C)CC(=O)OCOC(=O)N(CCc1cccc2ccc(OC)cc12)C(C)=O	–
A (>25%)	4	–	–	CCCCCCCC(=O)OCC(COC(=O)CCCCCCC)OC(=O)C(C)(C)CCC(=O)OCOC(=O)N(CCc1cccc2ccc(OC)cc12)C(C)=O	–
A (>25%)	−10	225	9** %	CCCCCCCC(=O)OCC(COC(=O)CCCCCCC)OC(=O)CC(C)(C)CCCCCCC(=O)OCOC(=O)N(CCc1cccc2ccc(OC)cc12)C(C)=O	–
A (>25%)	−7	400	16** %	CCCCCCCC(=O)OCC(COC(=O)CCCCCCC)OC(=O)CC(C)(C)CCCCC(=O)OCOC(=O)N(CCc1cccc2ccc(OC)cc12)C(C)=O	–
A (>25%)	9	–	–	CCCCCCCC(=O)OCC(COC(=O)CCCCCCC)OC(=O)C(C)(C)CCCC(=O)OCOC(=O)N(CCc1cccc2ccc(OC)cc12)C(C)=O	–
–	–	–	–	COc1ccc2cccc(CCNC(C)=O)c2c1	MT1 receptor agonism (MT1 receptor): potent MT1 and MT2 receptor agonist; 5-HT2C antagonism (5-HT2C): 5-HT2C antagonist; 5-HT2C antagonism (5-HT2C; listed as agomelatine): antagonist of 5-HT2c; MT2 receptor agonism (MT2 receptor): potent MT1 and MT2 receptor agonist; agomelatine detected in the plasma ([4]; agomelatine alone administered orally): no agomelatine was detected in the plasma; AUC (plasma exposure of agomelatine) ([4]; oral): Not Detected; liver toxicity [5]: serious liver toxicity concerns; liver toxicity ([5]; listed as agomelatine): liver toxicity concerns in some patients receiving agomelatine; metabolized by cytochrome P450 isoenzymes in the liver [6]: up to 90%; % Dose in Lymph [3, 9]: 0.04* %
–	–	–	–	CCCCCCCC(=O)OCC(COC(=O)CCCCCCC)OC(=O)CC(C)(C)CC(=O)OCOC(=O)N(CCc1cccc2ccc(OC)cc12)C(C)=O	AUC (plasma exposure of agomelatine) ([4]; oral): 0.207 µM·h; Approximate Fold Change Compared to AGM [3, 10]: 1400 fold; % Dose in Lymph [3, 9]: 57* %
A (>25%)	–	–	–	CCCCCCCC/C=C\CCCCCCCC(=O)OCC(COC(=O)CCCCCCC/C=C\CCCCCCCC)OC(=O)CC1(CC(=O)OCOC(=O)N(CCc2cccc3ccc(OC)cc23)C(C)=O)CCC1	levels of free agomelatine in human plasma supplemented with LPL [1]: high levels of free agomelatine
B (5-25%)	8	–	–	CCCCCCCC(=O)OCC(COC(=O)CCCCCCC)OC(=O)C(C)(C)CCCCCCCCC(C)(C)C(=O)OCOC(=O)N(CCc1cccc2ccc(OC)cc12)C(C)=O	–
A (>25%)	8	550	22** %	CCCCCCCC(=O)OCC(COC(=O)CCCCCCC)OC(=O)CC(C)(C)CCCC(=O)OCOC(=O)N(CCc1cccc2ccc(OC)cc12)C(C)=O	AUC (plasma exposure of agomelatine) ([4]; oral): 0.194 µM·h
A (>25%)	10	–	–	CCCCCCCC/C=C\CCCCCCCC(=O)OCC(COC(=O)CCCCCCC/C=C\CCCCCCCC)OC(=O)CC(C)(C)CCC(C)(C)CC(=O)OCOC(=O)N(CCc1cccc2ccc(OC)cc12)C(C)=O	AUC (plasma exposure of agomelatine), dose adjusted ([4]; oral, delivered dose 2.9x lower than standard, AUC dose adjusted to equivalent of 1 mg/kg agomelatine): 288* nmol*h/L
C (1-4.99%)	–	–	–	CCCCCCCC/C=C\CCCCCCCC(=O)OCC(COC(=O)CCCCCCC/C=C\CCCCCCCC)OC(=O)CC1(CC(=O)OCOC(=O)N(CCc2cccc3ccc(OC)cc23)C(C)=O)CCCCC1	–
A (>25%)	10	–	–	CCCCCCCC/C=C\CCCCCCCC(=O)OCC(COC(=O)CCCCCCC/C=C\CCCCCCCC)OC(=O)CC(C)(C)CC(=O)OCOC(=O)N(CCc1cccc2ccc(OC)cc12)C(C)=O	levels of free agomelatine in human plasma supplemented with LPL [1]: high levels of free agomelatine; Approximate Fold Change Compared to AGM [3, 10]: 1500 fold; % Dose in Lymph [3, 9]: 61* %
C (1-4.99%)	10	–	–	CCCCCCCC/C=C\CCCCCCCC(=O)OCC(COC(=O)CCCCCCC/C=C\CCCCCCCC)OC(=O)CC(C)(C)CC(=O)OC(C)OC(=O)N(CCc1cccc2ccc(OC)cc12)C(C)=O (stereo not shown)	–
A (>25%)	6	–	–	CCCCCCCC/C=C\CCCCCCCC(=O)OCC(COC(=O)CCCCCCC/C=C\CCCCCCCC)OC(=O)CC1(CC(=O)OCOC(=O)N(CCc2cccc3ccc(OC)cc23)C(C)=O)CC1	levels of free agomelatine in human plasma supplemented with LPL [1]: high levels of free agomelatine; Approximate Fold Change Compared to AGM [3, 10]: 1800 fold; % Dose in Lymph [3, 9]: 72* %
A (>25%)	10	1350	54** %	CCCCCCCC(=O)OCC(COC(=O)CCCCCCC)OC(=O)C(C)(C)CCCCC(C)(C)C(=O)OCOC(=O)N(CCc1cccc2ccc(OC)cc12)C(C)=O	AUC (plasma exposure of agomelatine) ([4]; oral): 0.156 µM·h
A (>25%)	6	1000	40** %	CCCCCCCC(=O)OCC(COC(=O)CCCCCCC)OC(=O)C(C)(C)CCCCCCC(C)(C)C(=O)OCOC(=O)N(CCc1cccc2ccc(OC)cc12)C(C)=O	–
B (5-25%)	–	–	–	CCCCCCCC/C=C\CCCCCCCC(=O)OCC(COC(=O)CCCCCCC/C=C\CCCCCCCC)OC(=O)CC1(CC(=O)OCOC(=O)N(CCc2cccc3ccc(OC)cc23)C(C)=O)CCCC1	–
